Data taken from patent publication US20050158775A1, “Novel plamid DNA comprising reoprter gene DNA and use of the same” (priority 1997, published 2005).

Protein sequences, listed by entry. Tags and fused reporters are not part of them. Residues count along the entry.
UniProt P37231, 204-505, stated change not applied: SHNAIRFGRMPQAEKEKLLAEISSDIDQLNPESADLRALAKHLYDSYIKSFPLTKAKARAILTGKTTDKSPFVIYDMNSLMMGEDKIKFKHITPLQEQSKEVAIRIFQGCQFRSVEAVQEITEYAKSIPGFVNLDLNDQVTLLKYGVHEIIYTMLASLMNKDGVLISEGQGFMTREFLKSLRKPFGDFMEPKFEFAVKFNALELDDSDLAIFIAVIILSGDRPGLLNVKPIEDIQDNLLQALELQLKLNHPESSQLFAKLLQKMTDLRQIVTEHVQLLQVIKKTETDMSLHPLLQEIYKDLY

Legend:
[1] = molecular target: T1, Gal4-human PPAR δ chimeric receptor protein (Homo sapiens, UniProt Q03181); format: cell-based
T1 construct: the 139th serine (Ser) to the 441st tyrosine (Tyr) of the human PPAR δ receptor; expressed in transfected cells
T1 sequence (Q03181 139-441): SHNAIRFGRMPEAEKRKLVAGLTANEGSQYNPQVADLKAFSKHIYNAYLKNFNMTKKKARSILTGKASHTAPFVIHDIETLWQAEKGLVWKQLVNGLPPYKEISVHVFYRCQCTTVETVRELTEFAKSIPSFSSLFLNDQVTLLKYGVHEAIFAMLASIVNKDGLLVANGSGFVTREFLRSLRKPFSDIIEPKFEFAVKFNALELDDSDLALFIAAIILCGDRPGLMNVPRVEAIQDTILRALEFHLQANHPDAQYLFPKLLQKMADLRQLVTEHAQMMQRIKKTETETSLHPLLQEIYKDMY

[2] = molecular target: T2, Gal4-human PPAR α chimeric receptor protein (Homo sapiens, UniProt Q07869); format: cell-based
T2 construct: the 167th serine (Ser) to the 468th tyrosine (Tyr) of the human PPAR α receptor; expressed in transfected cells
T2 sequence (Q07869 167-468): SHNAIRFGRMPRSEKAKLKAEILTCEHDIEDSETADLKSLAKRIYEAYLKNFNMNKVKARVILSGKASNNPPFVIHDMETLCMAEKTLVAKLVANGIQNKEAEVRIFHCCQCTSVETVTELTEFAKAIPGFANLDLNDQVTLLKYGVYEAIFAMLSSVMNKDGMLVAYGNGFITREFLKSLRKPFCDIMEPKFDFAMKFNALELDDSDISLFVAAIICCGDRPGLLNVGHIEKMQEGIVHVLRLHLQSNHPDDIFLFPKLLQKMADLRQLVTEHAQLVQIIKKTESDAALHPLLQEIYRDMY

[3] = molecular target: Gal4-human PPAR γ chimeric receptor protein (Homo sapiens, UniProt P37231)

Question: `CCCCC[C@H](O)/C=C/[C@@H]1[C@H]2C/C(=C/CCCC(=O)O)C[C@H]2C[C@H]1O` [carbacyclin] was tested. Which “cell death of PPAR δ ligand-responsive cells” value [1] did it give?
Answer: The value was “cause dose-dependent cell death”.

Question: And the “cell death of PPAR α ligand-responsive cells” value [2]?
Answer: The value was “cause dose-dependent cell death”.

Question: What about the “cell death of PPAR γ ligand-responsive cells” value [3] of the same compound?
Answer: Its value is “do not cause cell death”.
